Here are results for three compounds from ChEMBL document CHEMBL4007426, “Phosphinophosphonates and Their Tris-pivaloyloxymethyl Prodrugs Reveal a Negatively Cooperative Butyrophilin Activation Mechanism” (J Med Chem, 2017).

By UniProt entry, the sequences of proteins in these tests, tags left out. Where a name states a change or a piece, a line headed by the entry shows the natural chain unless it says otherwise.
UniProt O00481: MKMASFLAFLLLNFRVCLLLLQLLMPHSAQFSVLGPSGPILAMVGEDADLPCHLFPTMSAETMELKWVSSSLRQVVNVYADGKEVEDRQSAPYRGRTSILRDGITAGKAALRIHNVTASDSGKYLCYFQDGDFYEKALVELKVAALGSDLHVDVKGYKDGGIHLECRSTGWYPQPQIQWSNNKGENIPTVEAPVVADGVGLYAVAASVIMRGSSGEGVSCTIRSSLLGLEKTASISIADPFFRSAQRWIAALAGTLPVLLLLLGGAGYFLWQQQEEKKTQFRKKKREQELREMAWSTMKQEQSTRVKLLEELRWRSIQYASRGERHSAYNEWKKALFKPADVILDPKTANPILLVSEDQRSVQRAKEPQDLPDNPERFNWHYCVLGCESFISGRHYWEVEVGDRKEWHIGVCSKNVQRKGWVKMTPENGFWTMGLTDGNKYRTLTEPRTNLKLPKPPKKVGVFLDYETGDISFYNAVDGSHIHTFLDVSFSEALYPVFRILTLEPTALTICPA

For the experiment, the target named is Butyrophilin subfamily 3 member A1 (Homo sapiens) (UniProt O00481). The experiment in a line: Potency index, ratio of HMBPP EC50 to compound EC50 for BTN3A1 in human Vgamma9Vdelta2 T cells assessed as induction of T effector cells mediated K562 cell lysis.

Regarding `C/C(=C\CCP(=O)([O-])CP(=O)([O-])[O-])CO.[Na+].[Na+].[Na+]`, the Ratio EC50 was 3.9e-05. As for `C/C(=C\CCP(=O)(CP(=O)(OCOC(=O)C(C)(C)C)OCOC(=O)C(C)(C)C)OCOC(=O)C(C)(C)C)CO` (stereo not drawn), the figure is 0.0057.

`CC(C)=CCCP(=O)(CP(=O)(OCOC(=O)C(C)(C)C)OCOC(=O)C(C)(C)C)OCOC(=O)C(C)(C)C` (stereo not drawn): the Ratio EC50 is 0.00022.
